Measured values from patent publication EP4821932A1, “PHOSPHATE SALT OF 1-((3S,4R)-3-((2-((1-ETHYL-1H-PYRAZOL-4-YL)AMINO)-7H-PYRROLO[2,3-D]PYRIMIDIN-4-YL)OXY)-4-FLUOROPIPERIDIN-1-YL)PROP-2-EN-1-ONE, CRYSTALLINE FORM THEREOF, AND METHOD FOR PREPARATION THEREOF” (dated 2026).
Where a name gives a salt, the structure may show the parent alone.

What was measured:
[1] = Stability under accelerated testing criteria (purity by HPLC); conditions: purity by HPLC after 2 weeks at 40±2°C/75±5% relative humidity
Method: (§1) The physical properties of the free base (Compound 1) obtained in Preparation Example and the phosphate salt obtained in Example 1 were measured as follows. • 1) Melting Point: Measured with MP70 available from Mettler Toledo. The sample was collected through a capillary, and then allowed to fall freely using a specified glass rod, and repeated several times to ensure that there was no empty space in the capillary tube. Then, the transmittance was measured starting from 168°C and increasing the temperature by 1°C per minute, and the melting point was confirmed. The measurement results are shown in Table 2 below. • 2) Thermogravimetric analysis: Measured using TGA2 available from Mettler Toledo. […] Specific thermogravimetric analysis results are shown in FIG. 4. • 3) Hygroscopicity analysis (DVS Hygroscopicity): Measured using DVS Adventure available from Surface Measurement Systems. […] The measurement results are shown in Table 2 below. • 4) Water Solubility: Measured by HPLC available from Waters. […] The HPLC area of the filtrate was measured to confirm the solubility. The measurement results are shown in Table 2 below. • 5) Stability: The purity was measured after 2 weeks under the accelerated testing criteria of 40±2°C/75±5% relative humidity. […]

[2] = Hygroscopicity analysis (DVS Hygroscopicity); conditions: 0~95% RH at 25°C; for Hygroscopicity: class by degree of moisture adsorption
Method: The physical properties of the free base (Compound 1) obtained in Preparation Example and the phosphate salt obtained in Example 1 were measured as follows. • 1) Melting Point: Measured with MP70 available from Mettler Toledo. The sample was collected through a capillary, and then allowed to fall freely using a specified glass rod, and repeated several times to ensure that there was no empty space in the capillary tube. Then, the transmittance was measured starting from 168°C and increasing the temperature by 1°C per minute, and the melting point was confirmed. The measurement results are shown in Table 2 below. • 2) Thermogravimetric analysis: Measured using TGA2 available from Mettler Toledo. 50 mg of the sample was placed in an Al2O3 pan, and the temperature was increased from 30.0°C at a rate of 10.00°C per minute to confirm the weight change up to 600.0 °C. Specific thermogravimetric analysis results are shown in FIG. 4. • 3) Hygroscopicity analysis (DVS Hygroscopicity): Measured using DVS Adventure available from Surface Measurement Systems. The sample was exposed to 0~95% RH using DVS at 25°C to confirm the hygroscopicity. Depending on the degree of moisture adsorption, it was divided into Non-hygroscopic (0~0.12%)/Slightly Hygroscopic (0.2~2%)/Moderately Hygroscopic (2.0~15.0%)/Very Hygroscopic (>15.0%). The measurement results are shown in Table 2 below. • 4) Water Solubility: Measured by HPLC available from Waters. The sample was supersaturated with water at 23~26°C, stirred for at least 18 hours, and then allowed to stand for at least 18 hours. The supernatant extracted using a centrifuge was filtered through a 0.45 µm filter. The HPLC area of the filtrate was measured to confirm the solubility. The measurement results are shown in Table 2 below. • 5) Stability: The purity was measured after 2 weeks under the accelerated testing criteria of 40±2°C/75±5% relative humidity. About 1 mg of the phosphoric acid salt solid obtained in Example 1 was dissolved in 1 ml of 100% methanol, and then 700 µl of acetonitrile was added to 300 µl of this solution, diluted, and the purity was measured by HPLC.

Water solubility by HPLC = conditions: water at 23~26°C, stirred at least 18 hours, left to stand at least 18 hours, 0.45 µm filter
Method: as §1

C=CC(=O)N1CC[C@@H](F)[C@@H](Oc2nc(Nc3cnn(CC)c3)nc3[nH]ccc23)C1 [Free base of Preparation Example]
Stability [1]: 94.87% (2 weeks)
Hygroscopicity (degree of moisture adsorption) [2]: 6%
Hygroscopicity [2]: Moderately Hygroscopic (Moderately Hygroscopic (2.0~15.0%))
Water solubility (Water solubility by HPLC): 0.568 mg/mL

C=CC(=O)N1CC[C@@H](F)[C@@H](Oc2nc(Nc3cnn(CC)c3)nc3[nH]ccc23)C1 [Phosphate salt of Example]
Stability [1]: 99.50% (2 weeks)
Hygroscopicity (degree of moisture adsorption) [2]: 3.4%
Hygroscopicity [2]: Moderately Hygroscopic (Moderately Hygroscopic (2.0~15.0%))
